These results are taken from publication PMC7723054.

The other results are listed elsewhere or left out.

Holding throughout (test): FOREST: bead pull-down of RNA structure library v1, barcode microarray; U1A/LIN28A: 20 mM HEPES pH 7.5, 80 mM KCl, 20 mM NaCl, 10% glycerol, 2 mM DTT, 0.1 ug/uL BSA, 4 C; BG4/CIRBP/DHX36: 10 mM Tris-HCl pH 7.5, 100 mM KCl (or LiCl),; high values mean tight binding
One assay addresses U1A (Homo sapiens, UniProt P09012).
The next assay addresses T1, LIN28A (human?, UniProt Q9H9Z2 1-209).
T1 sequence: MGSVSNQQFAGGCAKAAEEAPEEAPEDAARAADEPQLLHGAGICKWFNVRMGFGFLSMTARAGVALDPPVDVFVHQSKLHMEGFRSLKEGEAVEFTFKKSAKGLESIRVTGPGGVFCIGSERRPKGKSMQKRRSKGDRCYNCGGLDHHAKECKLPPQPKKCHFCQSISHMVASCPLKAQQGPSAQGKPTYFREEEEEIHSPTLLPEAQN

The target in the next assay is T2, CIRBP (Homo sapiens, UniProt Q14011 1-172).
T2 sequence: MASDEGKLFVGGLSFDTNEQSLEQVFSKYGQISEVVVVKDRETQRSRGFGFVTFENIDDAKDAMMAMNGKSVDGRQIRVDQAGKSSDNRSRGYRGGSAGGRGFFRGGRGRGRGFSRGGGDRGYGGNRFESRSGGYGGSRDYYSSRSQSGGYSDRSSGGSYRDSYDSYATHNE

The next assay addresses T3, DHX36 (Homo sapiens, UniProt Q9H2U1 1-1008).
T3 sequence: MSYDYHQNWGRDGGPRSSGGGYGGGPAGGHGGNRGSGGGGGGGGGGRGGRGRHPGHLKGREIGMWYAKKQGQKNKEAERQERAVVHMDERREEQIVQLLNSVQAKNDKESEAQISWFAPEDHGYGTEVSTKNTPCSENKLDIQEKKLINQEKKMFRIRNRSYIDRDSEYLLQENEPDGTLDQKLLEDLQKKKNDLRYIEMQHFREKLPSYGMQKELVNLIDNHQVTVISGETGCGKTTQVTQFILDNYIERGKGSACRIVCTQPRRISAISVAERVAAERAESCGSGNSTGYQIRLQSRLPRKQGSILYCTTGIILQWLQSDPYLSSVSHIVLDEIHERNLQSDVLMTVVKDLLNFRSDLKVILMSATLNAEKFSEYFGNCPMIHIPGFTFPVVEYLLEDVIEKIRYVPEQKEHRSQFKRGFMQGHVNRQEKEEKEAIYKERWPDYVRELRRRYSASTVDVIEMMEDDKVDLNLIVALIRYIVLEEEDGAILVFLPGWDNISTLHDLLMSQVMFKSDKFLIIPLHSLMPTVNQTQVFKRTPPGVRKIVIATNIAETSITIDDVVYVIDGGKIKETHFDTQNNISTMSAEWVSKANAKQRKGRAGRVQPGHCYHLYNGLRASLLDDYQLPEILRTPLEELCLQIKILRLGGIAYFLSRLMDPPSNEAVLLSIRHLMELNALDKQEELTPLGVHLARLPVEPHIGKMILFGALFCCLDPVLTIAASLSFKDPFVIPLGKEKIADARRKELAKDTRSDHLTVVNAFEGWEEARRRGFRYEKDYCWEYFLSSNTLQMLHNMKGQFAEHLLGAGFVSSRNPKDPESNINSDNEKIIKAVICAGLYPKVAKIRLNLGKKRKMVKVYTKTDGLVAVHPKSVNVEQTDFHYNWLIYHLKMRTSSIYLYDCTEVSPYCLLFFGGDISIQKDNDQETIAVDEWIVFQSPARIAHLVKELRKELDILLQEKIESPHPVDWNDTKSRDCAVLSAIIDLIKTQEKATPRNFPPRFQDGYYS

B1: G4_(UGGGU)6 (structured_RNA)
RNA: GGGAGAAUCCCGCGGAGGCUGCUAUAAAGGUGUACGAAGUUUCAGCUGGGUUGGGUUGGGUUGGGUUGGGUUGGGUGCUGAAGCUUCGUGCAC
Take B1: the binding signal turned out to be 0.898 z-score in the assay with U1A, 0.961 z-score with LIN28A, 5.02 z-score with CIRBP and 6.65 z-score with DHX36.

B2: hsa-mir-4540 (structured_RNA)
RNA: GGGAAUUAGUUGAGGUCGGACUCUCGACGGUGUACGAAGUUUCAGCCUUGGCACCUUUGGCCUUAGGCUGAAGCUUCGUGCAC
In the case of B2, the binding signal with U1A is 0.891 z-score; in the assay with LIN28A, -0.00508 z-score; with CIRBP it was 0.0438 z-score; with DHX36, 0.745 z-score.

B3: hsa-mir-1207 (structured_RNA)
RNA: GGGAAUAUUGGAAACUGGGGUUCCCCUAGGUGUACGAAGUUUCAGCGGGGCUGGCUGGGUCUGGUAGUGGGCAUCAGCUGGCCCUGCUGAAGCUUCGUGCAC
Turning to B3, the binding signal was 0.926 z-score with U1A, 0.166 z-score with LIN28A, -0.157 z-score in the assay with CIRBP and 0.78 z-score with DHX36.

B4: PARIS_ID9 (structured_RNA)
RNA: GGGAGAACUUCGCACCGCAUGAAGUCCUGGUGUACGAAGUUUCAGCAGGACAAUACAGACAGUAACUCCUAUGGUUACAAUGAACACUCCUGCUGAAGCUUCGUGCAC
On to B4, for which the binding signal in the assay with U1A was 2.4 z-score; with LIN28A it was -0.149 z-score; with CIRBP, -0.37 z-score; with DHX36 it was 0.426 z-score.

B5: hsa-mir-6082 (structured_RNA)
RNA: GGGAACGCAGCAAUCGGAUUGCAACAUUGGUGUACGAAGUUUCAGCAUCCAGUCCACUUAAUUCUGAGAAAGUCCACAGACUGGAUCGGGUCUUGGAUUUUAGCUGGAUUCAUGCUGAAGCUUCGUGCAC
With B5, the binding signal in the assay with U1A amounted to 0.943 z-score; with LIN28A it was 0.395 z-score; with CIRBP, 0.886 z-score; in the assay with DHX36, 0.0614 z-score.

B6: G4_(UGGU)8 (structured_RNA)
RNA: GGGAAAGACUUUGGUAGAACGAUUAUCCGGUGUACGAAGUUUCAGCUGGUUGGUUGGUUGGUUGGUUGGUUGGUUGGUGCUGAAGCUUCGUGCAC
Regarding B6, the binding signal was 0.939 z-score with U1A, -0.29 z-score with LIN28A, -0.0978 z-score in the assay with CIRBP and 8.36 z-score with DHX36.

B7: hsa-mir-562 (structured_RNA)
RNA: GGGAAGCAUGGAUCUAUAAAAUGGCUCCGGUGUACGAAGUUUCAGCCUUUUAGAGUAAUUGUGAAACUGUUUUUCAAAGGCUGAAGCUUCGUGCAC
Take B7: the binding signal with U1A was 0.901 z-score; with LIN28A, -0.411 z-score; with CIRBP it was 0.0671 z-score; with DHX36 it was -0.424 z-score.

B8: hsa-mir-8081 (structured_RNA)
RNA: GGGAAGCUAACGGGACAUACCAGAGUAAGGUGUACGAAGUUUCAGCCUAUGGCCCCCCUCCUCUCUGAAAGCAAGGCCACUUGGCUGAAGCUUCGUGCAC
On to B8, for which the binding signal came to 0.891 z-score with U1A, 0.39 z-score with LIN28A, 0.0446 z-score with CIRBP and 1.36 z-score in the assay with DHX36.

B9: hsa-mir-3655 (structured_RNA)
RNA: GGGACCUAUACGUCGAUGGUCCUUGAACGGUGUACGAAGUUUCAGCUGCUGUUGGAGACUCGAUUGUUGGUGACAGCGAAAGAACGAUAACAAAGCUGAAGCUUCGUGCAC
Consider B9, for which the binding signal with U1A was 0.896 z-score; with LIN28A it was 0.871 z-score; with CIRBP, -0.913 z-score; in the assay with DHX36 it was -0.921 z-score.

B10: hsa-mir-195 (structured_RNA)
RNA: GGGACAAUCCGCGAGUCGAAUAAAAGUGGGUGUACGAAGUUUCAGCUUGGCACAGGGAAGCGAGUCUGCCAAGCUGAAGCUUCGUGCAC
Consider B10, for which the binding signal with U1A is 0.899 z-score; with LIN28A, 0.397 z-score; in the assay with CIRBP it was 1.19 z-score; in the assay with DHX36, -0.311 z-score.

B11: hsa-mir-4663 (structured_RNA)
RNA: GGGACAGGUUGGCACACCGACUAUCACUGGUGUACGAAGUUUCAGCCAGUGGCAUCUGUCAUUGGCUGAAGCUUCGUGCAC
As to B11, the binding signal with U1A was 0.939 z-score; with LIN28A, -1.87 z-score; with CIRBP, -1.17 z-score; with DHX36, -0.816 z-score.

B12: hsa-mir-130b (structured_RNA)
RNA: GGGAAUAUGAGGAUCACGCGCCGCAAAAGGUGUACGAAGUUUCAGCACUACUAUAGGCCGCUGGGAAGCAGUGCUGAAGCUUCGUGCAC
Turning to B12, the binding signal with U1A was 0.932 z-score; in the assay with LIN28A it was -0.129 z-score; in the assay with CIRBP, -1.07 z-score; with DHX36, 0.341 z-score.

B13: hsa-mir-4536-2 (structured_RNA)
RNA: GGGACGAAGCGAGAUAAGUACGACUCUAGGUGUACGAAGUUUCAGCACGAUAUAGGUAUGUAUGUAUGUAUGUAUAAAAGCAGGGCAGUAUAUAUAUCGUGCUGAAGCUUCGUGCAC
On to B13, for which the binding signal was 2.44 z-score in the assay with U1A, 1.18 z-score with LIN28A, 0.831 z-score in the assay with CIRBP and 0.616 z-score with DHX36.

B14: hsa-mir-1289-1 (structured_RNA)
RNA: GGGACACGAAACGAUUUGUUGAACGACUGGUGUACGAAGUUUCAGCUCCACCCCCAGAGAAUCCCUAAACCGGGGGUGGAGCUGAAGCUUCGUGCAC
In the case of B14, the binding signal is 0.943 z-score with U1A, 0.703 z-score in the assay with LIN28A, -0.676 z-score with CIRBP and -0.441 z-score with DHX36.

B15: hsa-mir-532 (structured_RNA)
RNA: GGGAAAAGCGACGGAGCUUGUAUAUCCCGGUGUACGAAGUUUCAGCGACCGUUGGCAUCUUAAUUACCCUCGCUGAAGCUUCGUGCAC
In the case of B15, the binding signal with U1A is 0.895 z-score; with LIN28A, 0.737 z-score; in the assay with CIRBP, 0.831 z-score; with DHX36, -0.0916 z-score.

B16: G4_(UGGU)6 (structured_RNA)
RNA: GGGACAUGGUAUAGUAGACGUUAGUAGGGGUGUACGAAGUUUCAGCUGGUUGGUUGGUUGGUUGGUUGGUGCUGAAGCUUCGUGCAC
For the molecule B16, the binding signal in the assay with U1A was found to be 0.941 z-score; in the assay with LIN28A it was 0.541 z-score; with CIRBP, 1.45 z-score; with DHX36, 8.05 z-score.

B17: hsa-mir-499b (structured_RNA)
RNA: GGGAAAAUCCAAGGUCUAUGAUGUGGUCGGUGUACGAAGUUUCAGCUGUUCACGUGGAGAGGAGUUAAACAGCUGAAGCUUCGUGCAC
As for B17, the binding signal with U1A worked out at 0.946 z-score; in the assay with LIN28A, 0.718 z-score; in the assay with CIRBP, 2.25 z-score; with DHX36, 0.317 z-score.

B18: hsa-mir-624 (structured_RNA)
RNA: GGGAGGCAGUAGUGUAUACCCAGUGAGGGGUGUACGAAGUUUCAGCUGUGUUCAGUGGAACCAAGGUAAACACAGCUGAAGCUUCGUGCAC
Consider B18, for which the binding signal is 0.936 z-score with U1A, 0.65 z-score with LIN28A, -0.0341 z-score with CIRBP and 0.365 z-score with DHX36.

B19: hsa-mir-6801 (structured_RNA)
RNA: GGGACAUAUAUGGGCUCGGCCACCCUAAGGUGUACGAAGUUUCAGCAAAUGAGAGUUAGCCAGGAGCUUUGCAUACUCAGCUGAAGCUUCGUGCAC
In the case of B19, the binding signal was 0.938 z-score with U1A, 0.456 z-score with LIN28A, 0.677 z-score in the assay with CIRBP and -0.738 z-score with DHX36.

B20: hsa-mir-548h-4 (structured_RNA)
RNA: GGGACAAACUUGCCAGGGUGUUCUGACCGGUGUACGAAGUUUCAGCUUUGUCAUUACUUUAAUUACUUUACGUUUCAUUAAUGACAAAGCUGAAGCUUCGUGCAC
Take B20: the binding signal with U1A was 0.918 z-score; with LIN28A, -1.04 z-score; in the assay with CIRBP, 0.245 z-score; in the assay with DHX36 it was -0.614 z-score.

B21: hsa-mir-548j (structured_RNA)
RNA: GGGAGACGGAAGACCUUUGCUACGGGUAGGUGUACGAAGUUUCAGCUUUGGUAUUACUUUCAGUGGCAAAGCUGAAGCUUCGUGCAC
On to B21, for which the binding signal in the assay with U1A was 0.907 z-score; in the assay with LIN28A, 0.179 z-score; in the assay with CIRBP, 0.000803 z-score; with DHX36 it was -0.155 z-score.

B22: hsa-mir-518e (structured_RNA)
RNA: GGGAAUUGGGAAGUGGGACAUAGGACGCGGUGUACGAAGUUUCAGCCUUUCUGUUGGCUAAAAGAAAAGAAAGGCUGAAGCUUCGUGCAC
Consider B22, for which the binding signal was 0.927 z-score with U1A, -0.207 z-score with LIN28A, -0.329 z-score with CIRBP and -0.821 z-score with DHX36.
